The values below come from ChEMBL document CHEMBL3351838, “Ligand-based pharmacophore modeling and virtual screening for the discovery of novel 17β-hydroxysteroid dehydrogenase 2 inhibitors” (J Med Chem, 2014).

Molecules are shown by their SMILES.

The test addresses T1, 17-beta-hydroxysteroid dehydrogenase type 2 (Homo sapiens) (UniProt P37059).
T1 sequence (whole entry): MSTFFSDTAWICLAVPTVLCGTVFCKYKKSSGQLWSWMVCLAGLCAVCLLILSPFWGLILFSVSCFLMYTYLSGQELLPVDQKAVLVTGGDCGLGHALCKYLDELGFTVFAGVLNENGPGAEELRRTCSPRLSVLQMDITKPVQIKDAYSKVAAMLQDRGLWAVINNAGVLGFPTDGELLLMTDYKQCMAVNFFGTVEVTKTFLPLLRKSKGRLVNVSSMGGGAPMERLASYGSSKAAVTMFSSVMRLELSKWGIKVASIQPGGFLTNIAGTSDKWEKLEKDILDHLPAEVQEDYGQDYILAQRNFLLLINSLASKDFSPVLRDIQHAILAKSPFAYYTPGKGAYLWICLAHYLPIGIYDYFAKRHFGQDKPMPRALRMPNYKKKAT
As to conditions: 1 uM.

For the molecule `C[C@]12CC[C@@H]3c4ccc(O)cc4CC[C@H]3[C@@H]1CC[C@@]21CCCC(=O)O1`, the inhibition (as a rule, the percentage by which the read-out fell short of the control) amounted to 85%.
